Series [1] relates to C[C@@H](O)[C@H]1C(=O)N2C(C(=O)O)=C(SCCNC=N)C[C@H]12. Briefly: Activity of Pseudomonas aeruginosa beta-lactamase VIM-2 by spectrophotometry. Conditions: 81-11963. The method in brief: (§1)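 Recombinant enzyme was expressed in E. coli BL21(DE3) from pET-26b and purified from the periplasm to >99%, with concentration taken from A280. Hydrolysis was followed spectrophotometrically at 25°C in 50 mM sodium cacodylate pH 7.0 with 100 μM ZnCl2 and 0.1 mg/ml BSA. Km and kcat came from initial velocity versus substrate concentration. Some Km values were taken as competitive Ki against nitrocefin reporter.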

For series [2] the test system is unchanged. Nature of the series: Ratio of Kcat to Km for Pseudomonas aeruginosa beta-lactamase VIM-2 by spectrophotometry. Conditions: 81-11963. The method in brief:
as §1

“Beta-lactamase VIM-2 (Pseudomonas aeruginosa) (from UniProt Q9K2N0)”: in series [1], the Km was found to be 9 µM and the kcat amounted to 34 s⁻¹. In addition, the catalytic efficiency (kcat/Km) in series [2] was determined as 3.8e+06 M⁻¹ s⁻¹.

A word on the Km: it is the substrate concentration at which the rate is half of its maximum. In general, kcat refers to the maximal rate divided by the concentration of active sites. As usually defined, the kcat/Km is the second-order rate constant that governs catalysis at low substrate concentration.
